Like-named read-outs stand apart in the source and are kept apart here.
Key:
[1] = target: EGFR LRTMCS (L858R/T790M/C797S) (Homo sapiens, UniProt P00533, C797S/L858R/T790M); assay: Biochemical EGFR kinase assay (Lance Ultra TR-FRET), triple mutant L858R/T790M/C797S
Experimental: (§1) Biochemical EGFR kinase assays were conducted using Lance Ultra time-resolved fluorescence resonance energy transfer (TR-FRET) technology from Perkin-Elmer. Compounds of the invention were initially diluted to 20 mM in 100% DMSO for storage and made into kinase buffer solution to create a compound concentration ranging from 0.003 μM and 10 μM.
(§2) Briefly, each EGFR enzyme wildtype (EGFR WT), double mutant [del19/C797S (EGFR D19CS) and L858R/C797S (EGFR LRCS)], triple mutant [del19/T790M/C797S (EGFR D19TMCS) and L858R/T790M/C797S (EGFR LRTMCS)], serial diluted EGFR inhibitors, substrate of ULight-poly-GT peptide (PerkinElmer; TRF0100-M) and different concentrations of ATP (Km and 100 μM final assay concentration) were mixed in kinase assay buffer (50 mM HEPES pH 7.4, 10 mM MgCl2, 1 mM EGTA, 2 mM DTT and 0.01% Tween-20) and were added to a 384-well plate (Optiplate™ 384, white, PerkinElmer; 6007290).
(§3) Each kinase reactions were incubated at room temperature for 1 hour and then stopped by the addition of 4 μL of stop solution (10 mM EDTA). The specific Europium-labeled-anti-phosphopeptide antibody (PerkinElmer, AD0069) diluted in LANCE detection buffer was then added to a final concentration of 2 nM. After 60 minutes incubation at room temperature the LANCE signal was measured on an EnVision Multilabel Reader (Perkin-Elmer). Excitation wavelength was set at 320 nm and emission monitored at 615 nm (donor) and 665 nm (acceptor). The IC50 values were determined using GraphPad prism software (GraphPad Software, Inc., San Diego, CA, USA).

Chains of the proteins cited; added tags and fusions are not shown. Lines headed by an entry give the natural chain unless they say otherwise; changes in a name come on top. A line that says so, or that is headed by a name, gives the form on record, which may keep a tag or linker. Residues count along the entry.
UniProt P00533, 25-1210 limits assumed: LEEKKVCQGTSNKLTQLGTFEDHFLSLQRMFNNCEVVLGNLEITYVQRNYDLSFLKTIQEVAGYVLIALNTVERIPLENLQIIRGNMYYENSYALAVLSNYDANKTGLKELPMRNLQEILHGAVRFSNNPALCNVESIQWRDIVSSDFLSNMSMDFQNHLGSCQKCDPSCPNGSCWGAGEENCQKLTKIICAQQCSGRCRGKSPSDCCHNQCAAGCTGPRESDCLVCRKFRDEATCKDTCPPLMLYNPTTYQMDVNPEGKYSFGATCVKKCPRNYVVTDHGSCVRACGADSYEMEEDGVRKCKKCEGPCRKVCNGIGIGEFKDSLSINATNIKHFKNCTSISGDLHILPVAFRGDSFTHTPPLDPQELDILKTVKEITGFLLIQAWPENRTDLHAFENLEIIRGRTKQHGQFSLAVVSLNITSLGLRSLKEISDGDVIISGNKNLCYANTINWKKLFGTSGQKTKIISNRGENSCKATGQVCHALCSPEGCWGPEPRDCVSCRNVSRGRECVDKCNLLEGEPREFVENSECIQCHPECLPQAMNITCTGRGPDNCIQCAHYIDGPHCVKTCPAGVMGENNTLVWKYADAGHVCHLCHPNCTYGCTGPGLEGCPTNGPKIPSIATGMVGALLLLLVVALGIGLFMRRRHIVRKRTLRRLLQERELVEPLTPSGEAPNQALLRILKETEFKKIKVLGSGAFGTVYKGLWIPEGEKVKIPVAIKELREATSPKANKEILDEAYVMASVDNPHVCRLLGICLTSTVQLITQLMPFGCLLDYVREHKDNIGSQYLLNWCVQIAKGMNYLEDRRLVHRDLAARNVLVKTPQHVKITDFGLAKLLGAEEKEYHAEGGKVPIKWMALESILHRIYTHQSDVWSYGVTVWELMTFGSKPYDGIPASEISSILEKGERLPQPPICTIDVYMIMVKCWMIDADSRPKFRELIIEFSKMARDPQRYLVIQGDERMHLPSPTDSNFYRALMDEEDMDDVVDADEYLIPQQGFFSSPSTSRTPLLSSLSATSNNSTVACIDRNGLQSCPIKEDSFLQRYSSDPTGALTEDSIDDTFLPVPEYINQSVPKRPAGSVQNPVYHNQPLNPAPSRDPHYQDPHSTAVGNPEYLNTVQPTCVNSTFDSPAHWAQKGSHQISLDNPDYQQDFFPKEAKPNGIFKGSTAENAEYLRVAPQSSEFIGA
UniProt P00533, 25-1210 C797S/L858R limits assumed: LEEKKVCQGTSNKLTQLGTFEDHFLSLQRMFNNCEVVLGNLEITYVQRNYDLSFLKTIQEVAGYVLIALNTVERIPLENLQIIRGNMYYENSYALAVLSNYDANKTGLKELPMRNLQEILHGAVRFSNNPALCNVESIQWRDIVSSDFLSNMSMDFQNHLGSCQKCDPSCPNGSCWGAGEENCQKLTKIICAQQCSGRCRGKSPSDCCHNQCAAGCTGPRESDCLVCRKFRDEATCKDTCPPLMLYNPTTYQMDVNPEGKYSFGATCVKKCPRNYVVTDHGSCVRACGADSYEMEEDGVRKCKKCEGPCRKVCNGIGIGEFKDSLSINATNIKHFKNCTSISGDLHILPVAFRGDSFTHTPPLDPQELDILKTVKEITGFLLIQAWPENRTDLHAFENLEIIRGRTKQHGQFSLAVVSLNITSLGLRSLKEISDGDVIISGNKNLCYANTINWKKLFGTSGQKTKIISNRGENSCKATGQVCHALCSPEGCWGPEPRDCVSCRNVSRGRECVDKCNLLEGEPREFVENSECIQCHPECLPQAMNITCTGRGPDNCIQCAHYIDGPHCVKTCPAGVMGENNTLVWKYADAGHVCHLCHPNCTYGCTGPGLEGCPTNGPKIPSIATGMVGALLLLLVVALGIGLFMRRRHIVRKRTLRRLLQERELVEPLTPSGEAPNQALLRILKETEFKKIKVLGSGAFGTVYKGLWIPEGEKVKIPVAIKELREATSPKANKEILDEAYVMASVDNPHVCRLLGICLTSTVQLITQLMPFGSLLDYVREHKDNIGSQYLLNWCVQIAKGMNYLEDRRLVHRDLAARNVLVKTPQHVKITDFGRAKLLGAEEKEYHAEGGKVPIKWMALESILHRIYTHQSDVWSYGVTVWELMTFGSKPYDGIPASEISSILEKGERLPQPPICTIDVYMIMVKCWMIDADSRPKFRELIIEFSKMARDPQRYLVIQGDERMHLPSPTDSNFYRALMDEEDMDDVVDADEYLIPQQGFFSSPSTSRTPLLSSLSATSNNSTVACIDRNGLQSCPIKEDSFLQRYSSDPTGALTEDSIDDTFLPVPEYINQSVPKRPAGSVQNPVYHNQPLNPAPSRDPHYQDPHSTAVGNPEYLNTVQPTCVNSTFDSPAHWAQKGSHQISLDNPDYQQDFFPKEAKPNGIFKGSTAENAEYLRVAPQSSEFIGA
UniProt P00533, 25-1210 T790M/C797S/L858R limits assumed: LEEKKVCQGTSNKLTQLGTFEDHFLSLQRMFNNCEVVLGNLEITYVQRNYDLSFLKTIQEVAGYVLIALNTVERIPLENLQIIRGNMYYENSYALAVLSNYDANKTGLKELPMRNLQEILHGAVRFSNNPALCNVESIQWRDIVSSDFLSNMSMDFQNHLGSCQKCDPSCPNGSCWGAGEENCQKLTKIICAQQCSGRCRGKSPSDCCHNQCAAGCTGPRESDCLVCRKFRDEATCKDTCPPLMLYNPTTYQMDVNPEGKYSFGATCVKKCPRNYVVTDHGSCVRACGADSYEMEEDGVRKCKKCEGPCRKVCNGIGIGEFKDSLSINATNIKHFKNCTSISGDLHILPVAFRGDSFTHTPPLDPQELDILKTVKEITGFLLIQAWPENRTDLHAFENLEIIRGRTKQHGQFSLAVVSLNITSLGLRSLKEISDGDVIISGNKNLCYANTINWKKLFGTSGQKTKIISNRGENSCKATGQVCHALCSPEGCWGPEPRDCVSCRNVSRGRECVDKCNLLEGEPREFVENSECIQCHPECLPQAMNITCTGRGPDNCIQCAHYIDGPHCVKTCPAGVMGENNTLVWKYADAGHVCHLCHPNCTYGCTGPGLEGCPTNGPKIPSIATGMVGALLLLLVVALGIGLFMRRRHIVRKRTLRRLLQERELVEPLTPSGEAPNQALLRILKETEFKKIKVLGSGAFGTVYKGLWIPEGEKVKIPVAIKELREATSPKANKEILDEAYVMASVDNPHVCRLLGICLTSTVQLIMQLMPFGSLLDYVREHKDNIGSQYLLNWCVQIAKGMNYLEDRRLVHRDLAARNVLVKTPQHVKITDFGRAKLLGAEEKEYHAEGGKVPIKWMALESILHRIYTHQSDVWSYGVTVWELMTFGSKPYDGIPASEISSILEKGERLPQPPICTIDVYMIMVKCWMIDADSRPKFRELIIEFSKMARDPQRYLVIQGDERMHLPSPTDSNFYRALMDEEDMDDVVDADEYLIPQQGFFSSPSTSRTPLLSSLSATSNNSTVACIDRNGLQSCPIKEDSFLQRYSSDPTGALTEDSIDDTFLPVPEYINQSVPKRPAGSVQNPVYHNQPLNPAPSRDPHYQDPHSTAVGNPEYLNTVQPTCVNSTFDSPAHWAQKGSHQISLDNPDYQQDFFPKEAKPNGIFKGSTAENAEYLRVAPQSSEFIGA
UniProt P00533, with tags, fused parts or gaps DEL746-750/C797S limits assumed: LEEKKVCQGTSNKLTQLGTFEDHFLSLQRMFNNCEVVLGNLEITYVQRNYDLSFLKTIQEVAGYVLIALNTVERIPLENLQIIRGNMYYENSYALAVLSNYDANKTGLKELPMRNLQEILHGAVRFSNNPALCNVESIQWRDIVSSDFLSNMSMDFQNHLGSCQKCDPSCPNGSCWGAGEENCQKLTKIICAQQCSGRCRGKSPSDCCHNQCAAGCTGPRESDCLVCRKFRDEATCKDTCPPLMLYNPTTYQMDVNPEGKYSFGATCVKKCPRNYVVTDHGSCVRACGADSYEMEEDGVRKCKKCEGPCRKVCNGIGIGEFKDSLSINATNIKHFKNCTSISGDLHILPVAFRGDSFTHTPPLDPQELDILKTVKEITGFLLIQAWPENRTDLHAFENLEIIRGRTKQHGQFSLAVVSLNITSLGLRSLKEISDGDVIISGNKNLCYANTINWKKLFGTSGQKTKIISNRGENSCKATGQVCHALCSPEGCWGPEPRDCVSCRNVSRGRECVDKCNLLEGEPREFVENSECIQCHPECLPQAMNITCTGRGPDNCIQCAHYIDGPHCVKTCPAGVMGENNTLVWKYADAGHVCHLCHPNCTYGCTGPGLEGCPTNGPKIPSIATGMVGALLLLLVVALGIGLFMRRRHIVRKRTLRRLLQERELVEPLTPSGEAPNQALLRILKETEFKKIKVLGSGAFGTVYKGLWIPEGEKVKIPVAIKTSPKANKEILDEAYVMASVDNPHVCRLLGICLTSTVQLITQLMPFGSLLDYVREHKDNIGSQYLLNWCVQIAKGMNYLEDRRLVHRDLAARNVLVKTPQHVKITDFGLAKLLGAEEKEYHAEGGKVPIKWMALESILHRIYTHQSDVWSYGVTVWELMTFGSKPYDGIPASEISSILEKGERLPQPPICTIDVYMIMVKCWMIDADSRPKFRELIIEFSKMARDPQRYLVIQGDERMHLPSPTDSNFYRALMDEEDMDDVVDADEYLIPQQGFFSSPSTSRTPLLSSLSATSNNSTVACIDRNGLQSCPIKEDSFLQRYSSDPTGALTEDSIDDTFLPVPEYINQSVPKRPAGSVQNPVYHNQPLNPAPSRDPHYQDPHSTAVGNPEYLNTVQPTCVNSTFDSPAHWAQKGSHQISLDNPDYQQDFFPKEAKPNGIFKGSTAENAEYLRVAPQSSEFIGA
UniProt P00533, with tags, fused parts or gaps DEL746-750/T790M/C797S limits assumed: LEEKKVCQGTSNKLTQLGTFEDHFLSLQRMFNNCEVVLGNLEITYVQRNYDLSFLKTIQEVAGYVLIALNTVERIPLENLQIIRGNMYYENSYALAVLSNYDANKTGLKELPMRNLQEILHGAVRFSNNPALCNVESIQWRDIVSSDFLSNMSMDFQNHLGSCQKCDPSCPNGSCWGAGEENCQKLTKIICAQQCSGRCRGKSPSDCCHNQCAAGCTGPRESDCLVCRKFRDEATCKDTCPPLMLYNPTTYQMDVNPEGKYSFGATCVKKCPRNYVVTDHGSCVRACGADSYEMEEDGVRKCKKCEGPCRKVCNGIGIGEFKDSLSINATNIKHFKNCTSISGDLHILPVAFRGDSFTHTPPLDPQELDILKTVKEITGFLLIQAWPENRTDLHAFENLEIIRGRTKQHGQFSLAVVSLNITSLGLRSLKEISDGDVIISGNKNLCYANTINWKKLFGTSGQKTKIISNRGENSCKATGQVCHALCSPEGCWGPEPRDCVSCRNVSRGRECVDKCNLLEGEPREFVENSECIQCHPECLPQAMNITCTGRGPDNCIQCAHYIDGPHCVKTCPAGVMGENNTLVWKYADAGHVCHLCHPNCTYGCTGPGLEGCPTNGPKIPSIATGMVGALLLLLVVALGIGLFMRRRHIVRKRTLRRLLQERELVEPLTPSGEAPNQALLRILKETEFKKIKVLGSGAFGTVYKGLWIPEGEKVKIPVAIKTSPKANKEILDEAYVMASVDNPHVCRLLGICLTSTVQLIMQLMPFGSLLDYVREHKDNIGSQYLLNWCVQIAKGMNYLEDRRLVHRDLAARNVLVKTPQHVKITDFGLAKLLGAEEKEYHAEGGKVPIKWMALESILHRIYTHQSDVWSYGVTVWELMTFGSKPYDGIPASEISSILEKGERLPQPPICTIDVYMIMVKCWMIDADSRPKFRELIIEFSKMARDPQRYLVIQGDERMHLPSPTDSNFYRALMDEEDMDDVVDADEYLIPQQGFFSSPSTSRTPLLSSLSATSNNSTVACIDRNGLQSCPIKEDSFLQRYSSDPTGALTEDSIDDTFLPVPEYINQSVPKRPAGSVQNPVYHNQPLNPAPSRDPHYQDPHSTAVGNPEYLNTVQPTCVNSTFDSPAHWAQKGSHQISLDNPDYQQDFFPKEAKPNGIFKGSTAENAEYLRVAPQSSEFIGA

[2] = target: EGFR D19TMCS (del19/T790M/C797S) (Homo sapiens, UniProt P00533, C797S/DEL746-750/T790M); assay: Biochemical EGFR kinase assay (Lance Ultra TR-FRET), triple mutant del19/T790M/C797S
Experimental: as §1, §2, §3

[3] = target: EGFR D19CS (del19/C797S) (Homo sapiens, UniProt P00533, C797S/DEL746-750); assay: Biochemical EGFR kinase assay (Lance Ultra TR-FRET), double mutant del19/C797S
Experimental: as §1, §2, §3

[4] = target: EGFR WT (Homo sapiens, UniProt P00533); assay: Biochemical EGFR kinase assay (Lance Ultra TR-FRET), wildtype
Experimental: as §1, §2, §3

[5] = target: EGFR LRCS (L858R/C797S) (Homo sapiens, UniProt P00533, C797S/L858R); assay: Biochemical EGFR kinase assay (Lance Ultra TR-FRET), double mutant L858R/C797S
Experimental: as §1, §2, §3

[6] = read-out: EGFR LRTMCS IC50, ATP 1 mM
[7] = read-out: EGFR LRTMCS IC50, ATP Km
[8] = read-out: EGFR D19TMCS IC50, ATP 1 mM
[9] = read-out: EGFR D19TMCS IC50, ATP Km
[10] = read-out: EGFR D19CS IC50, ATP 1 mM
[11] = read-out: EGFR D19CS IC50, ATP Km
[12] = read-out: EGFR WT IC50, ATP 1 mM
[13] = read-out: EGFR LRCS IC50, ATP 1 mM
[14] = read-out: EGFR LRCS IC50, ATP Km
[15] = read-out: IC50, EGFR LRTMCS, 1 mM, ATP 1 mM, EGFR L858R/T790M/C797S
[16] = read-out: IC50, EGFR LRTMCS, Km, ATP at Km, EGFR L858R/T790M/C797S
[17] = read-out: IC50, EGFR D19TMCS, Km, ATP at Km, EGFR del19/T790M/C797S
[18] = read-out: IC50, EGFR-D19CS, 1 mM, ATP 1 mM, EGFR del19/C797S
[19] = read-out: IC50, EGFR-D19CS, Km, ATP at Km, EGFR del19/C797S
[20] = read-out: IC50, EGFR WT, 1 mM, ATP 1 mM, EGFR wildtype
[21] = read-out: IC50, EGFR WT, Km, ATP at Km, EGFR wildtype
[22] = read-out: IC50, EGFR-LRCS, 1 mM, ATP 1 mM, EGFR L858R/C797S
[23] = read-out: IC50, EGFR-LRCS, Km, ATP at Km, EGFR L858R/C797S

Row | SMILES | IC50 [1, 6] [µM] | IC50 [1, 7] [µM] | IC50 [2, 8] [µM] | IC50 [2, 9] [µM] | IC50 [3, 10] [µM] | IC50 [3, 11] [µM] | IC50 [4, 12] [µM] | IC50 ([4]; read-out: EGFR WT IC50, ATP Km) [µM] | IC50 [5, 13] [µM] | IC50 [5, 14] [µM] | IC50 [1, 15] [µM] | IC50 [1, 16] [µM] | IC50 [2, 17] [µM] | IC50 [3, 18] [µM] | IC50 [3, 19] [µM] | IC50 [4, 20] [µM] | IC50 [4, 21] [µM] | IC50 [5, 22] [µM] | IC50 [5, 23] [µM]
1 | CN1CCN(Cc2cnc(-c3cnc4cc3NCC(C)(C)COc3c(cnn3C)-c3nccc(n3)N4)c(F)c2)CC1 | < 0.01 | < 0.01 | < 0.01 | < 0.01 | < 0.01 | < 0.01 | > 1 | < 0.01 | 0.01 to 0.1 | < 0.01 |  |  |  |  |  |  |  |  | 
2 | Cn1ncc2c1OCC1(CCCC1)CNc1cc(ncc1-c1ccn(C(F)F)n1)Nc1ccnc-2n1 | 0.01 to 0.1 | < 0.01 | < 0.01 | < 0.01 | 0.01 to 0.1 | 0.01 to 0.1 | > 1 | < 0.01 | 0.1 to 1 | 0.01 to 0.1 |  |  |  |  |  |  |  |  | 
3 | Cc1nn(C)c2c1-c1nccc(n1)Nc1cc(c(-c3cnc(S(C)(=O)=O)cn3)cn1)N[C@@H](C)CCO2 |  |  |  |  |  |  |  |  |  |  | 0.01 to 0.1 | < 0.01 | < 0.01 | 0.1 to 1 | 0.01 to 0.1 | > 1 | 0.1 to 1 | > 1 | < 0.01
4 | Cc1nn(C)c2c1-c1nccc(n1)Nc1cc(c(-c3ccc(C(C)(C)O)cn3)cn1)NCC[C@@H](C)O2 |  |  |  |  |  |  |  |  |  |  | < 0.01 | < 0.01 | < 0.01 | < 0.01 | < 0.01 | > 1 | 0.01 to 0.1 | 0.01 to 0.1 | < 0.01
5 | Cc1nn(C)c2c1-c1nccc(n1)Nc1cc(c(-c3ncc(CN4CCC(C(C)(C)O)CC4)cc3F)cn1)N[C@@H](C)CCO2 |  |  |  |  |  |  |  |  |  |  | < 0.01 | < 0.01 | < 0.01 | < 0.01 | < 0.01 | > 1 | < 0.01 | 0.01 to 0.1 | < 0.01
6 | Cn1ncc2c1OCC(C)(C)CNc1cc(ncc1-c1ccn(C(F)F)n1)Nc1ccnc-2n1 | < 0.01 | < 0.01 | < 0.01 | < 0.01 | 0.01 to 0.1 | < 0.01 | > 1 | 0.01 to 0.1 | 0.01 to 0.1 | < 0.01 |  |  |  |  |  |  |  |  | 
7 | COc1cc(F)cnc1-c1cnc2cc1N[C@@H](C)CCOc1c(cnn1C)-c1nccc(n1)N2 | 0.1 to 1 | 0.01 to 0.1 | 0.1 to 1 | 0.01 to 0.1 | > 1 | > 1 | > 1 | > 1 | > 1 | 0.1 to 1 |  |  |  |  |  |  |  |  | 
8 | Cc1nn(C)c2c1-c1nccc(n1)Nc1cc(c(-c3ccc(N4CCN(C)CC4)cn3)cn1)NCC[C@H](C)O2 | < 0.01 | < 0.01 | < 0.01 | < 0.01 | < 0.01 | < 0.01 | > 1 | 0.01 to 0.1 | < 0.01 | < 0.01 |  |  |  |  |  |  |  |  | 
9 | Cc1nn(C)c2c1-c1nccc(n1)Nc1cc(c(-c3ncc(C(C)(C)O)cc3F)cn1)N[C@@H](C)CCO2 | 0.01 to 0.1 | < 0.01 | < 0.01 | < 0.01 | 0.01 to 0.1 | < 0.01 | > 1 | 0.01 to 0.1 | 0.1 to 1 | < 0.01 |  |  |  |  |  |  |  |  | 
10 | Cc1nn(C)c2c1-c1nccc(n1)Nc1cc(c(-c3ncc(CN4CCOCC4)cc3F)cn1)N[C@@H](C)CCO2 |  |  |  |  |  |  |  |  |  |  | < 0.01 | < 0.01 | < 0.01 | 0.01 to 0.1 | 0.01 to 0.1 | > 1 | 0.01 to 0.1 | 0.1 to 1 | 0.01 to 0.1
11 | Cn1ncc2c1OCC(C)(C)CNc1cc(ncc1-c1ccc(C(C)(O)C(F)(F)F)cn1)Nc1ccnc-2n1 (stereo not shown) | < 0.01 | < 0.01 | 0.01 to 0.1 | < 0.01 | 0.01 to 0.1 | < 0.01 | > 1 | 0.01 to 0.1 | 0.1 to 1 | 0.01 to 0.1 |  |  |  |  |  |  |  |  | 
12 | Cn1ncc2c1OCCNc1cc(ncc1-c1ccn(C(F)F)n1)Nc1ccnc-2n1 | > 1 | < 0.01 | > 1 | 0.1 to 1 | > 1 | > 1 | > 1 | > 1 | > 1 | > 1 |  |  |  |  |  |  |  |  | 
13 | C[C@H]1CCOc2c(cnn2C)-c2nccc(n2)Nc2cc(c(-c3cc(NC4CC(F)(F)C4)ccn3)cn2)N1 | < 0.01 | < 0.01 | < 0.01 | < 0.01 | 0.01 to 0.1 | 0.01 to 0.1 | > 1 | 0.01 to 0.1 | 0.1 to 1 | 0.01 to 0.1 |  |  |  |  |  |  |  |  | 
14 | Cn1ncc2c1OC[C@@H](F)CNc1cc(ncc1-c1ccc(OC(F)F)cn1)Nc1ccnc-2n1 | 0.1 to 1 | < 0.01 | 0.01 to 0.1 | < 0.01 | > 1 | > 1 | > 1 | > 1 | > 1 | 0.1 to 1 |  |  |  |  |  |  |  |  | 
15 | Cc1nn(C)c2c1-c1nccc(n1)Nc1cc(c(-c3ncc(CN4CCC(O)CC4)cc3F)cn1)NCC[C@H](C)O2 |  |  |  |  |  |  |  |  |  |  | < 0.01 | < 0.01 | < 0.01 | 0.01 to 0.1 | < 0.01 | > 1 | 0.01 to 0.1 | 0.01 to 0.1 | < 0.01
